High-throughput results from PubChem.
Rows were chosen to be rich in hits. Some 0.92% of all compounds tested hit in one or more screens of this group.
Giardia kill – kills Giardia lamblia. activity change, % at 7.66 µM, hits read low. Giardia lamblia trophozoite viability. AID 540267. actives 0.15% (n = 340,000); in the data active = activity change below about -80%; inconclusive = between about -30% and that limit;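 also: parasites exposed to compound for two days anaerobically before the ATP read; % is scaled to controls: 0 for no effect and ±100 for the full control effect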
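Trophozoites 100 cells/well + cpd; 48 hrs, 37 deg C, anaerobic. ATPLite 1-Step added, 15-30 min RT, luminescence read (ATP-based viability).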
Coupling enz – coupling enzyme interference in Giardia aldolase counter-screen; coupling enzyme system counterscreen, AmpLite Red fluorescence; activity change, negative = inhibition, % at 58.2 µM, hits read low; actives 0.67% (n = 290,000); in the data active = activity change below about -30%; also: % is scaled to controls: 0 for no effect and ±100 for the full control effect
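Final compound at 57.5 uM, incubated 10 min at RT with coupling enzyme reagent (glyceraldehyde-3-phosphate), then 20 min with substrate and AmpLite Red detection. Fluorescence read at 525/598 nm; tests interference with the coupling assay, not aldolase inhibition.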
B2AR arrestin – agonists driving beta-arrestin recruitment to human beta2-adrenergic receptor | beta-arrestin recruitment to beta2AR, cell-based reporter | actives 0.02% (n = 330,000) | Potency, µM (highest dose often 46.1 µM), for the others: top-dose activation, most hits filed as activators | P07550 | AID 492947;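 also: potency is read from the fitted curve at half-maximal effect; 0% = DMSO controls and full agonism = EC100 isoproterenol or metaproterenol; nearly all actives have a fitted effect of over 65% in size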
miR-21 FLuc – miR-21 reporter, rising signal | HeLa miR-21 FLuc reporter, luciferase, 48 h | Potency, µM (top dose mostly 38.3 µM), inactives show at the top dose reporter change, positive = more light | 340,000 tested, under 10 active | AID 2288; active = well fitted rising curve with a large enough effect; inconclusive = small, poorly fitted or top-dose-only effect; inactive = no such curve, though single readings can be large or run the other way;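 further: % of control where 0% means no effect; miR-21 action dims this reporter so a rising signal means less miR-21 action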
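HeLa cells stably expressing CMV-driven firefly luciferase with a downstream miR-21 binding sequence, endogenously expressing miR-21, were treated with titrations (up to about 40uM final) for 48 hours at 37 degree Celsius. Luciferase luminescence was read after lysis.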
GALK inhibitor – galactokinase (human) inhibition; AID 1868; Potency, µM (titrated, usually from 57.5 µM), without a hit: at the top dose activity change, negative = inhibition, usual class: inhibitors; actives 0.007% (n = 270,000); P51570; Purified GALK, Kinase-Glo residual ATP luminescence; also: potency is read from the fitted curve at half-maximal effect; % is scaled to controls: 0 for no effect and ±100 for the full control effect
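Human GALK (5 nM) with 35 uM ATP and 100 uM galactose in 20 mM HEPES pH 8.0, 5 mM MgCl2, 60 mM NaCl, 1 mM DTT, 0.01% BSA. After 1 h at room temperature, leftover ATP was read by Kinase-Glo Plus luminescence.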
uPA surface inh – blocks generation of uPA at the cell surface. cell surface uPA generation assay, qHTS. Potency, µM (doses to about 38.3 µM), for inactives: at the highest dose activity change, negative = inhibition, usual class: inhibitors. actives 0.31% (n = 330,000); active = well fitted inhibition curve with a large enough effect; inconclusive = small, poorly fitted or top-dose-only effect; inactive = no such curve, though single readings can be large or run the other way; tested in mouse RAW 264.7 cells; also: potency is read from the fitted curve at half-maximal effect; % is scaled to controls: 0 for no effect and ±100 for the full control effect; nearly all actives have a fitted effect of over 55% in size
* = called active by the depositor; ? = inconclusive; / = no result. Unless noted, calls follow the shape of the dose curve; as a rule, active = well fitted curve in the direction sought with a large enough effect; inconclusive = small, poorly fitted or top-dose-only effect, or another doubt; inactive = no such curve, though single readings can be large; an effect the other way counts as inactive or inconclusive.

item	SMILES	Giardia kill	Coupling enz	B2AR arrestin
1	Cc1ccc(-n2nnc(-c3nccn3C)n2)cc1	?	-1	0%
2	Cc1cccc(N2CCN(CCNC(=O)Nc3ccc(Cl)cc3)CC2)c1C	/	/	/
3	CC(=O)N/N=C/c1ccccc1OCCOc1cccc(C)c1	-28	0	0%
4	O=[N+]([O-])c1ccc(-c2nc(C(Cl)Cl)c3ccccc3n2)cc1	-91*	0	0%
5	CN(Cc1ccccc1)c1nc(-c2ccc([N+](=O)[O-])cc2)nc2ccccc12	10	1	0%
6	COc1ccc(OC)c(-c2c3cc(O)c(=O)cc-3oc3cc(O)c(O)cc23)c1	-17	-53*	4%
7	CCOc1ccccc1-c1c2cc(O)c(=O)cc-2oc2cc(O)c(O)cc12	-10	-62*	0%
8	O=c1cc2oc3cc(O)c(O)cc3c(-c3ccccc3O)c-2cc1O	-2	-24	0%
9	CCN(CC)c1nn2c(=O)c(C(=O)NCCc3cccc(C)c3)cnc2s1	/	/	/
10	COc1cc2c(ccc3cc(OC)c(OC)c(O)c32)cc1O	-5	1	0%

item	miR-21 FLuc	GALK inhibitor	uPA surface inh
1	15%	-6%	3.2µM*
2	0%	/	/
3	-21%	-3%	13µM*
4	-5%	2%	-17%
5	-5%	0%	0%
6	22%	1%	-1%
7	7%	3%	-9%
8	14%	1%	-13%
9	0%	/	/
10	?	0%	10µM*

The results go on:
item	SMILES	Giardia kill	Coupling enz	B2AR arrestin
11	O=C(Nc1ccccc1)Oc1ccc[nH]c1=O	14	-44*	-1%
12	COC(=O)Cc1cc(=O)n2[nH]c(C(F)(F)F)nc2n1	-4	-34*	0%
13	COc1cccc(C(=O)N2CCN(Cc3ccccn3)CC2)c1OC	18	-55*	-1%
14	Oc1ccccc1C1C=C(c2ccc3c(c2)OCO3)NC(c2cccc(Br)c2)N1 (stereo unspecified)	-18	/	/
15	CC(=O)Nc1ccc(S(=O)(=O)N2c3ccc(F)cc3CCC2C)cc1 (stereo unspecified)	9	/	/
16	COc1ccc(-c2c(C)n([O-])c(C)c(C)[n+]2=O)cc1OC	1	0	0%
17	CC(=O)c1c(C)n([O-])c2cc(C)ccc2[n+]1=O	-104*	0	0%
18	Fc1ccc(Nc2c(-c3c[nH]c4ccccc34)nc3ccccn23)cc1	/	/	/
19	O=C(COc1ccccc1F)Nc1ccc(Cl)c(-c2nc3ccccc3[nH]2)c1	/	/	/
20	S=C(Nc1ccc(Cl)c(Cl)c1)NC1CCCCC1	22	-3	0%

item	miR-21 FLuc	GALK inhibitor	uPA surface inh
11	-7%	2%	-1%
12	-3%	-1%	6%
13	-7%	1%	5%
14	/	/	/
15	/	/	4.5µM*
16	-1%	-1%	0%
17	-6%	4%	-2%
18	-26%	/	/
19	19%	/	/
20	26%	-3%	/

Next compounds.
item	SMILES	Giardia kill	Coupling enz	B2AR arrestin
21	COc1ccc(NC(=S)Nc2ccc3nsnc3c2)cc1	5	-41*	5%
22	COCCNC(=S)Nc1ccc2nsnc2c1	11	-43*	3%
23	S=C(Nc1ccc2nsnc2c1)NC1CCCCC1	-3	-67*	0%
24	COc1ccc(N(C)C(=O)Nc2ccc3nsnc3c2)cc1	-2	-15	0%
25	CC(C)N(C(=O)Nc1ccc2nsnc2c1)C(C)C	1	-37*	0%
26	Cc1ccc(S(=O)(=O)Nc2cc3c(cc2C)n(C)c(=O)c(=O)n3C)c(C)c1	/	/	/
27	C=CCNC(=S)Nc1ccc2nsnc2c1	6	-23	0%
28	C=CCN(CC=C)C(=S)Nc1ccc2nsnc2c1	20	-54*	-1%
29	CN1C(=O)/C(=C/c2ccc3c(c2)OCO3)N=C1c1ccccc1	-11	1	-1%
30	CC/C=C1/N=C2C(=O)N(C)C(=O)N=C2N(C)N1	-88*	/	/

item	miR-21 FLuc	GALK inhibitor	uPA surface inh
21	-25%	/	?
22	-19%	0%	5%
23	-13%	-2%	1%
24	-19%	-2%	-10%
25	1%	2%	?
26	1%	/	/
27	-1%	1%	-5%
28	19%	0%	2%
29	0%	3%	-2%
30	/	/	/

Gathered by group, the entries above with a Cl atom (4)
item	SMILES	Giardia kill	Coupling enz	B2AR arrestin
2	Cc1cccc(N2CCN(CCNC(=O)Nc3ccc(Cl)cc3)CC2)c1C	/	/	/
4	O=[N+]([O-])c1ccc(-c2nc(C(Cl)Cl)c3ccccc3n2)cc1	-91*	0	0%
19	O=C(COc1ccccc1F)Nc1ccc(Cl)c(-c2nc3ccccc3[nH]2)c1	/	/	/
20	S=C(Nc1ccc(Cl)c(Cl)c1)NC1CCCCC1	22	-3	0%

item	miR-21 FLuc	GALK inhibitor	uPA surface inh
2	0%	/	/
4	-5%	2%	-17%
19	19%	/	/
20	26%	-3%	/

Remaining list, next part:
item	SMILES	Giardia kill	Coupling enz	B2AR arrestin
31	CN1N/C(=C\c2ccccc2)N=C2C(=O)N(C)C(=O)N=C21	-105*	/	/
32	Cc1ccc2nc(NC(=S)NC(=O)c3ccco3)sc2c1	?	-1	0%
33	Cc1ccc2nsnc2c1NC(=S)NC(=O)c1ccco1	-9	-45*	0%
34	CCOC(=O)c1nn(-c2ccc(C)c(C)c2)c(=O)c2c(N)scc12	14	-49*	-2%

item	miR-21 FLuc	GALK inhibitor	uPA surface inh
31	/	/	/
32	-73%	/	-4%
33	-8%	0%	7%
34	18%	-1%	1%
